Results from paper PMC8986778, “Citrullination of glucokinase is linked to autoimmune diabetes” (Nature Communications, 2022).

The molecules below were run against T1, DR0401 protein (Homo sapiens, UniProt P01903+P01911, A100K/A169T/F76Y/I96L/K127E/L162R/M171V/N62H/P40V/Q125Y/R42H/S133A/S149N/S66Y/V115G/V209L/W38E) (assay: DR0401 peptide binding competition assay). Conditions: Supplementary Table 2; competition with biotin-HA306-318 0.02 μM; read-out: IC50 (Binding of Predicted Glucokinase Peptides to DR04:01).
T1 construct: made in house; host or cells: insect cell cultures

IC50, > 50 µM:
CC[C@H](C)[C@H](NC(=O)[C@H](CCC(N)=O)NC(=O)[C@@H](N)CCC(=O)O)C(=O)N[C@@H](CC(C)C)C(=O)N[C@@H](C)C(=O)N[C@@H](CCC(=O)O)C(=O)N[C@@H](Cc1ccccc1)C(=O)N[C@@H](CCC(N)=O)C(=O)N[C@@H](CC(C)C)C(=O)N[C@@H](CCC(N)=O)C(=O)N[C@@H](CCC(=O)O)C(=O)N[C@@H](CCC(=O)O)C(=O)N[C@@H](CC(=O)O)C(=O)N[C@@H](CC(C)C)C(=O)N[C@@H](CCCCN)C(=O)O [GK 17-31]
CC(C)C[C@H](NC(=O)[C@H](CC(=O)O)NC(=O)[C@H](CC(C)C)NC(=O)[C@H](CO)NC(=O)[C@H](CC(C)C)NC(=O)[C@H](Cc1ccccc1)NC(=O)[C@H](CC(=O)O)NC(=O)CNC(=O)[C@@H](N)C(C)C)C(=O)NCC(=O)NCC(=O)N[C@H](C(=O)N[C@@H](CC(N)=O)C(=O)N[C@@H](Cc1ccccc1)C(=O)N[C@@H](CCCNC(=N)N)C(=O)O)[C@@H](C)O [GK 71-85]
CC[C@H](C)[C@H](NC(=O)[C@H](CC(=O)O)NC(=O)[C@H](CCC(=O)O)NC(=O)[C@H](Cc1c[nH]cn1)NC(=O)[C@H](CCCNC(=N)N)NC(=O)[C@@H](NC(=O)[C@@H]1CCCN1C(=O)[C@H](Cc1ccccc1)NC(=O)[C@H](CO)NC(=O)[C@H](Cc1ccccc1)NC(=O)[C@@H](NC(=O)[C@H](Cc1ccccc1)NC(=O)CNC(=O)[C@H](CC(C)C)NC(=O)[C@@H]1CCCN1)[C@@H](C)O)C(C)C)C(=O)O [GK 145-159]
CC(C)[C@H](NC(=O)[C@@H](NC(=O)[C@H](CC(N)=O)NC(=O)[C@H](CC(N)=O)NC(=O)CNC(=O)[C@H](CCC(=O)O)NC(=O)[C@H](C)NC(=O)CNC(=O)[C@H](CO)NC(=O)[C@H](C)NC(=O)[C@H](CCCCN)NC(=O)[C@H](Cc1ccccc1)NC(=O)CNC(=O)[C@H](CCCCN)NC(=O)[C@@H](N)[C@@H](C)O)C(C)C)C(=O)O [GK 168-182]
CSCC[C@H](NC(=O)[C@H](CCCNC(=N)N)NC(=O)CNC(=O)[C@H](CCC(=O)O)NC(=O)[C@H](CC(=O)O)NC(=O)CNC(=O)[C@H](CCC(=O)O)NC(=O)[C@@H](NC(=O)[C@H](CC(C)C)NC(=O)[C@H](CCC(=O)O)NC(=O)[C@@H](NC(=O)[C@@H](N)CC(N)=O)C(C)C)C(C)C)C(=O)N[C@@H](CS)C(=O)N[C@H](C(=O)N[C@@H](CC(N)=O)C(=O)O)C(C)C [GK 240-254]
CSCC[C@H](NC(=O)[C@H](CCCNC(=N)N)NC(=O)CNC(=O)[C@@H](N)CCC(=O)O)C(=O)N[C@@H](CS)C(=O)N[C@H](C(=O)N[C@@H](CC(N)=O)C(=O)N[C@H](C(=O)N[C@@H](CCC(=O)O)C(=O)N[C@@H](Cc1c[nH]c2ccccc12)C(=O)NCC(=O)N[C@@H](C)C(=O)N[C@@H](Cc1ccccc1)C(=O)NCC(=O)N[C@@H](CC(=O)O)C(=O)O)[C@@H](C)O)C(C)C [GK 248-262]
CSCC[C@H](NC(=O)[C@@H](N)CCCNC(=N)N)C(=O)N[C@@H](CS)C(=O)N[C@H](C(=O)N[C@@H](CC(N)=O)C(=O)N[C@H](C(=O)N[C@@H](CCC(=O)O)C(=O)N[C@@H](Cc1c[nH]c2ccccc12)C(=O)NCC(=O)N[C@@H](C)C(=O)N[C@@H](Cc1ccccc1)C(=O)NCC(=O)N[C@@H](CC(=O)O)C(=O)N[C@@H](CO)C(=O)NCC(=O)O)[C@@H](C)O)C(C)C [GK 250-264]
CC(C)C[C@H](NC(=O)[C@H](CCC(=O)O)NC(=O)CNC(=O)[C@H](CO)NC(=O)[C@H](CC(=O)O)NC(=O)CNC(=O)[C@H](Cc1ccccc1)NC(=O)[C@H](C)NC(=O)CNC(=O)[C@H](Cc1c[nH]c2ccccc12)NC(=O)[C@H](CCC(=O)O)NC(=O)[C@@H](NC(=O)[C@@H](N)CC(N)=O)[C@@H](C)O)C(=O)N[C@@H](CC(=O)O)C(=O)N[C@@H](CCC(=O)O)C(=O)O [GK 254-268]
CC(C)C[C@H](NC(=O)[C@H](CC(C)C)NC(=O)[C@H](Cc1ccccc1)NC(=O)[C@H](CCC(=O)O)NC(=O)[C@H](CC(=O)O)NC(=O)[C@H](CC(C)C)NC(=O)[C@H](CCC(=O)O)NC(=O)CNC(=O)[C@H](CO)NC(=O)[C@H](CC(=O)O)NC(=O)CNC(=O)[C@H](Cc1ccccc1)NC(=O)[C@H](C)NC(=O)CNC(=O)[C@@H](N)Cc1c[nH]c2ccccc12)C(=O)O [GK 257-271]
CC(C)C[C@H](NC(=O)[C@H](CCC(N)=O)NC(=O)[C@H](CCC(N)=O)NC(=O)CNC(=O)[C@@H]1CCCN1C(=O)[C@H](CC(N)=O)NC(=O)[C@H](C)NC(=O)[C@H](CO)NC(=O)[C@H](CO)NC(=O)[C@H](CCC(=O)O)NC(=O)[C@H](CC(=O)O)NC(=O)[C@@H](NC(=O)[C@H](CC(C)C)NC(=O)[C@H](CCCNC(=N)N)NC(=O)[C@@H](N)CC(=O)O)C(C)C)C(=O)O [GK 274-288]
CC[C@H](C)[C@H](NC(=O)[C@H](CC(C)C)NC(=O)[C@H](CCCCN)NC(=O)[C@H](CCC(=O)O)NC(=O)[C@H](Cc1ccc(O)cc1)NC(=O)[C@H](CC(C)C)NC(=O)[C@H](CCC(N)=O)NC(=O)[C@@H](N)CCC(N)=O)C(=O)NCC(=O)NCC(=O)N[C@@H](CCCCN)C(=O)N[C@@H](Cc1ccc(O)cc1)C(=O)N[C@@H](CCSC)C(=O)NCC(=O)N[C@@H](CCC(=O)O)C(=O)O [GK 286-300]
CC(C)C[C@H](NC(=O)[C@H](CC(C)C)NC(=O)[C@H](CC(N)=O)NC(=O)[C@H](CCC(=O)O)NC(=O)[C@H](CC(=O)O)NC(=O)[C@@H](NC(=O)[C@H](CC(C)C)NC(=O)[C@H](CCCNC(=N)N)NC(=O)[C@H](CC(C)C)NC(=O)[C@@H](N)CC(C)C)C(C)C)C(=O)N[C@@H](Cc1ccccc1)C(=O)N[C@@H](Cc1c[nH]cn1)C(=O)NCC(=O)N[C@@H](CCC(=O)O)C(=O)N[C@@H](C)C(=O)O [GK 306-320]
